Tested on: INS1
Experiment: Cytoprotective activity in rat INS-1 cells assessed as protection against tunicamycin-induced ER stress-mediated reduction in cell viability after 3 days by CellTiter-Glo assay
Assay type: functional, cell-based

SMILES: O=C(NCc1ccc(C(F)(F)F)cc1)c1cccc(CN2CCCCC2)c1
- Activity: Dose-dependent effect

— ChEMBL document CHEMBL4038317, “Discovery of a Benzamide Derivative That Protects Pancreatic β-Cells against Endoplasmic Reticulum Stress” (J Med Chem, 2017)
